Measured values taken from US9694016B2 (Novartis AG, priority 2013, dated 2017).

Sequences of proteins named here, by UniProt entry; tags and fusion partners are left off.
UniProt P04049, whole entry Y340E/Y341E: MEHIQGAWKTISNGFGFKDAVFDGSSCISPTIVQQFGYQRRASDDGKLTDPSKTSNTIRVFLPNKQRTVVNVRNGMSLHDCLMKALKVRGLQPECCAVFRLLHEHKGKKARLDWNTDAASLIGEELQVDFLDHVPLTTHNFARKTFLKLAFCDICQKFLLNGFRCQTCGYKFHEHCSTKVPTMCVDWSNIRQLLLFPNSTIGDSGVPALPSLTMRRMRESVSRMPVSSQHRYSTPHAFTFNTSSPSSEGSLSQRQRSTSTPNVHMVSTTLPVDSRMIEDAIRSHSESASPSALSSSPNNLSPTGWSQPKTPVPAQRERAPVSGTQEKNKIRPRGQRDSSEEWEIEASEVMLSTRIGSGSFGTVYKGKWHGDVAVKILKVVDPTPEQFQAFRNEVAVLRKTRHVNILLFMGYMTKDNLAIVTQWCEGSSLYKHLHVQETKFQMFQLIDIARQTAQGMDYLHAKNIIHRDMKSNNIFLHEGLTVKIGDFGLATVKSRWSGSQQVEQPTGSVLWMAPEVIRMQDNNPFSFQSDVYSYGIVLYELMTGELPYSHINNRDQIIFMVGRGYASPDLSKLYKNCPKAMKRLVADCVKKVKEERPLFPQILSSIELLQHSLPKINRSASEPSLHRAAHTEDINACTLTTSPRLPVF

Target: C-Raf FL (full-length C-Raf protein, Y340E and Y341E activating mutations) (Homo sapiens (Human), UniProt P04049, Y340E/Y341E)
Format: biochemical
Details: Table 2; AlphaScreen, 1 hour reaction; read-out: c-Raf FL IC-50

| IC50 | Compound |
| --- | --- |
| 0.4 nM | Cc1ccc(NC(=O)c2ccnc(S(C)(=O)=O)c2)cc1-c1cnc(OC2CCOCC2)c(N2CCOCC2)c1 [Example 274, N-(4-methyl-3-(5-morpholino-6-((tetrahydro-2H-pyran-4-yl)oxy)pyridin-3-yl)phenyl)-2-(methylsulfonyl)isonicotinamide] |
| 0.2 nM | Cc1ccc(NC(=O)c2cnnc(C(F)(F)F)c2)cc1-c1cnc(OC2CCOCC2)c(N2CCOCC2)c1 [Example 275, N-(4-methyl-3-(5-morpholino-6-((tetrahydro-2H-pyran-4-yl)oxy)pyridin-3-yl)phenyl)-6-(trifluoromethyl)pyridazine-4-carboxamide] |
| 0.2 nM | Cc1ccc(NC(=O)c2cnnc(C3CC3)c2)cc1-c1cnc(OC2CCOCC2)c(N2CCOCC2)c1 [Example 276, 6-cyclopropyl-N-(4-methyl-3-(5-morpholino-6-((tetrahydro-2H-pyran-4-yl)oxy)pyridin-3-yl)phenyl)pyridazine-4-carboxamide] |
| 0.5 nM | Cc1ccc(NC(=O)c2ccnc(C(C)(C)O)c2)cc1-c1cnc(OC2CCOCC2)c(N2CCOCC2)c1 [Example 277, 2-(2-hydroxypropan-2-yl)-N-(4-methyl-3-(5-morpholino-6-((tetrahydro-2H-pyran-4-yl)oxy)pyridin-3-yl)phenyl)isonicotinamide] |
| 1.6 nM | COc1ncc(-c2cc(NC(=O)c3ccnc(C(C)(C)F)c3)cnc2C)cc1N1CCOCC1 [Example 281, N-(6′-methoxy-2-methyl-5′-morpholino-[3,3′-bipyridin]-5-yl)-2-(2-fluoropropan-2-yl)isonicotinamide] |
| 1.2 nM | COc1ncc(-c2cc(NC(=O)c3ccnc(C4(C#N)CC4)c3)cnc2C)cc1N1CCOCC1 [Example 283, 2-(1-cyanocyclopropyl)-N-(6′-methoxy-2-methyl-5-morpholino-[3,3′-bipyridin]-5-yl)isonicotinamide] |
| 0.4 nM | CCOc1ncc(-c2cc(NC(=O)c3cnnc(C(C)(C)C#N)c3)ccc2C)cc1N1CCOCC1 [Example 284, 6-(2-cyanopropan-2-yl)-N-(3-(6-ethoxy-5-morpholinopyridin-3-yl)-4-methylphenyl)pyridazine-4-carboxamide] |
| 51.9 nM | CCOc1ncc(-c2cc(NC(=O)c3cnnc(C(F)(F)F)c3)cnc2C)cc1N1CCOC[C@H]1C [Example 285] |
| 51.9 nM | CCOc1ncc(-c2cc(NC(=O)c3cnnc(C(F)(F)F)c3)cnc2C)cc1N1CCOC[C@@H]1C [Example 286, (S)—N-(6′-ethoxy-2-methyl-5′-(3-methylmorpholino)-[3,3′-bipyridin]-5-yl)-6-(trifluoromethyl)pyridazine-4-carboxamide] |
| 4 nM | CCOc1ncc(-c2cc(NC(=O)c3cnnc(C(C)(C)C#N)c3)cnc2C)cc1N1CCOCC1 [Example 287, 6-(2-cyanopropan-2-yl)-N-(6′-ethoxy-2-methyl-5′-morpholino-[3,3′-bipyridin]-5-yl)pyridazine-4-carboxamide] |
| 1.2 nM | Cc1ncc(NC(=O)c2ccnc(C3(C#N)CC3)c2)cc1-c1cnc(Cl)c(N2CCOCC2)c1 [Example 288, N-(6′-chloro-2-methyl-5-morpholino-[3,3′-bipyridin]-5-yl)-2-(1-cyanocyclopropyl)isonicotinamide] |
| 3.8 nM | Cc1ncc(NC(=O)c2ccnc(C(C)(C)C#N)c2)cc1-c1cnc(Cl)c(N2CCOCC2)c1 [Example 289, N-(6′-chloro-2-methyl-5′-morpholino-[3,3-bipyridin]-5-yl)-2-(2-cyanopropan-2-yl)isonicotinamide] |
| 1.4 nM | Cc1ncc(NC(=O)c2ccnc(C(C)(C)F)c2)cc1-c1cnc(Cl)c(N2CCOCC2)c1 [Example 290, N-(6′-chloro-2-methyl-5′-morpholino-[3,3-bipyridin]-5-yl)-2-(2-fluoropropan-2-yl)isonicotinamide] |
| 1.4 nM | Cc1ncc(NC(=O)c2cnnc(C(F)(F)F)c2)cc1-c1cnc(Cl)c(N2CCOCC2)c1 [Example 292, N-(6′-chloro-2-methyl-5′-morpholino-[3,3′-bipyridin]-5-yl)-6-(trifluoromethyl)pyridazine-4-carboxamide] |
| 6.6 nM | Cc1ncc(NC(=O)c2cnnc(C(C)(C)C#N)c2)cc1-c1cnc(Cl)c(N2CCOCC2)c1 [Example 293, N-(6′-chloro-2-methyl-5′-morpholino-[3,3′-bipyridin]-5-yl)-6-(2-cyanopropan-2-yl)pyridazine-4-carboxamide] |
| 2.7 nM | Cc1ncc(NC(=O)c2ccnc(C(C)(C)F)c2)cc1-c1cncc(N2CCOCC2)c1 [Example 294, 2-(2-fluoropropan-2-yl)-N-(2-methyl-5′-morpholino-[3,3′-bipyridin]-5-yl)isonicotinamide] |

| IC50 | Compound |
| --- | --- |
| 0.6 nM | Cc1ncc(NC(=O)c2ccnc(C(F)(F)F)c2)cc1-c1cncc(N2CCOCC2)c1 [Example 295] |
| 4.9 nM | Cc1ncc(NC(=O)c2cnnc(C(C)(C)C#N)c2)cc1-c1cncc(N2CCOCC2)c1 [Example 296, 6-(2-cyanopropan-2-yl)-N-(2-methyl-5′-morpholino-[3,3′-bipyridin]-5-yl)pyridazine-4-carboxamide] |
| 3.6 nM | Cc1ncc(NC(=O)c2ccnc(C(C)(C)C#N)c2)cc1-c1cncc(N2CCOCC2)c1 [Example 297, 2-(2-cyanopropan-2-yl)-N-(2-methyl-5′-morpholino-[3,3′-bipyridin]-5-yl)isonicotinamide] |
| 1.9 nM | Cc1ncc(NC(=O)c2ccnc(C(C)(C)F)c2)cc1-c1cnc(F)c(N2CCOCC2)c1 [Example 298, N-(6′-fluoro-2-methyl-5′-morpholino-[3,3′-bipyridin]-5-yl)-2-(2-fluoropropan-2-yl)isonicotinamide] |
| 2.7 nM | Cc1ncc(NC(=O)c2ccnc(C(C)(C)F)c2)cc1-c1cnc(OCCO)c(N2CCOCC2)c1 [Example 299, 2-(2-fluoropropan-2-yl)-N-(6′-(2-hydroxyethoxy)-2-methyl-5′-morpholino-[3,3′-bipyridin]-5-yl)isonicotinamide] |
| 4.7 nM | Cc1ncc(NC(=O)c2ccnc(C(C)(C)C#N)c2)cc1-c1cnc(OCCO)c(N2CCOCC2)c1 [Example 300, 2-(2-cyanopropan-2-yl)-N-(6′-(2-hydroxyethoxy)-2-methyl-5′-morpholino-[3,3′-bipyridin]-5-yl)isonicotinamide] |
| 0.9 nM | Cc1ncc(NC(=O)c2cc(C(F)(F)F)ccn2)cc1-c1cnc(OCCO)c(N2CCOCC2)c1 [Example 301, N-(6′-(2-hydroxyethoxy)-2-methyl-5′-morpholino-[3,3′-bipyridin]-5-yl)-4-(trifluoromethyl)picolinamide] |
| 0.2 nM | Cc1ccc(NC(=O)c2cnnc(C3(C#N)CC3)c2)cc1-c1cnc(OC2CCOCC2)c(N2CCOCC2)c1 [Example 302, 6-(1-cyanocyclopropyl)-N-(4-methyl-3-(5-morpholino-6-((tetrahydro-2H-pyran-4-yl)oxy)pyridin-3-yl)phenyl)pyridazine-4-carboxamide] |
| 14.4 nM | CCOc1ncc(-c2cc(NC(=O)c3cnnc(C(C)(C)C#N)c3)cnc2C)cc1N1CCOC[C@H]1C [Example 303, (R)-6-(2-cyanopropan-2-yl)-N-(6′-ethoxy-2-methyl-5′-(3-methylmorpholino)-[3,3′-bipyridin]-5-yl)pyridazine-4-carboxamide] |
| 0.3 nM | CCOc1ncc(-c2cc(NC(=O)c3cnnc(C(C)(C)F)c3)ccc2C)cc1N1CCOCC1 [Example 304, N-(3-(6-ethoxy-5-morpholinopyridin-3-yl)-4-methylphenyl)-6-(2-fluoropropan-2-yl)pyridazine-4-carboxamide] |
| 0.6 nM | CCOc1ncc(-c2cc(C(=O)Nc3ccnc(C(F)(F)F)c3)ccc2C)cc1N1CCOCC1 [Example 306, 3-(6-ethoxy-5-morpholinopyridin-3-yl)-4-methyl-N-(2-(trifluoromethyl)pyridin-4-yl)benzamide] |
| 0.1 nM | Cc1ncc(NC(=O)c2cccc(C(F)(F)F)c2)cc1-c1cnc(N(C)C)c(N2CCOCC2)c1 [Example 307, N-(6′-(dimethylamino)-2-methyl-5′-morpholino-[3,3′-bipyridin]-5-yl)-3-(trifluoromethyl)benzamide] |
| 0.2 nM | Cc1ncc(NC(=O)c2ccnc(C(C)C)c2)cc1-c1cnc(N(C)C)c(N2CCOCC2)c1 [Example 308, N-(6′-(dimethylamino)-2-methyl-5′-morpholino-[3,3′-bipyridin]-5-yl)-2-isopropylisonicotinamide] |
| 4.6 nM | Cc1ncc(NC(=O)c2cccc(C(F)(F)F)c2)cc1-c1cnc(OC2CCOCC2)c(N2CCOCC2=O)c1 [Example 309, N-(2-methyl-5′-(3-oxomorpholino)-6′-((tetrahydro-2H-pyran-4-yl)oxy)-[3,3′-bipyridin]-5-yl)-3-(trifluoromethyl)benzamide] |
| 0.7 nM | Cc1ncc(NC(=O)c2cccc(C(F)(F)F)c2)cc1-c1cnc(O[C@H]2CCOC2)c(N2CCOCC2)c1 [Example 310, (S)—N-(2-methyl-5′-morpholino-6′-((tetrahydrofuran-3-yl)oxy)-[3,3′-bipyridin]-5-yl)-3-(trifluoromethyl)benzamide] |
| 0.9 nM | Cc1ncc(NC(=O)c2cccc(C(F)(F)F)c2)cc1-c1cnc(O[C@@H]2CCOC2)c(N2CCOCC2)c1 [Example 311, (R)—N-(2-methyl-5′-morpholino-6′-((tetrahydrofuran-3-yl)oxy)-[3,3′-bipyridin]-5-yl)-3-(trifluoromethyl)benzamide] |

| Compound | IC50 |
| --- | --- |
| Cc1ncc(NC(=O)c2ccnc(C(F)(F)F)c2)cc1-c1cnc(OC2CCOCC2)c(N2C3CCC2COC3)c1 [Example 278, N-(5′-(3-oxa-8-azabicyclo[3.2.1]octan-8-yl)-2-methyl-6′-((tetrahydro-2H-pyran-4-yl)oxy)-[3,3′-bipyridin]-5-yl)-2-(trifluoromethyl)isonicotinamide] | 2.4 nM |
| CCOc1ncc(-c2cc(NC(=O)c3cnnc(C(F)(F)F)c3)cnc2C)cc1N1C2CCC1COC2 [Example 282, N-(5′-(3-oxa-8-azabicyclo[3.2.1]octan-8-yl)-6′-ethoxy-2-methyl-[3,3′-bipyridin]-5-yl)-6-(trifluoromethyl)pyridazine-4-carboxamide] | 17.8 nM |
